Biological target: T1, MAO-B (Homo sapiens, UniProt P27338)
T1 construct: purchased Gentest-BD Biosciences 456284
Assay: Biochemical assay for MAO-B activity (FLINT, benzylamine/amplex red)
Details: average of two or more tests; 30 min preincubation of enzyme and compound; read-out: MAOB PIC50 MEAN (converted)
Procedure: Biochemical Assay for MAO-B Activity
The MAO-B FLINT assay is performed in a buffer containing 50 mM potassium phospate, pH 7.4, in milliQ ultrapure water. […] The enzyme and test compound are allowed to incubate together for 30 minutes at room temperature. Five microliters of the substrate mix are then added to each well of the plate to initiate the reaction. The plates are covered, protected from light and allowed to incubate for one hour at room temperature. […] Percent inhibition is calculated based on no compound and no enzyme controls, and inhibition curves are then plotted to determine PIC50 values.

Protein sequences, listed by entry. Tags and fused reporters are not part of them.
UniProt P27338, whole entry: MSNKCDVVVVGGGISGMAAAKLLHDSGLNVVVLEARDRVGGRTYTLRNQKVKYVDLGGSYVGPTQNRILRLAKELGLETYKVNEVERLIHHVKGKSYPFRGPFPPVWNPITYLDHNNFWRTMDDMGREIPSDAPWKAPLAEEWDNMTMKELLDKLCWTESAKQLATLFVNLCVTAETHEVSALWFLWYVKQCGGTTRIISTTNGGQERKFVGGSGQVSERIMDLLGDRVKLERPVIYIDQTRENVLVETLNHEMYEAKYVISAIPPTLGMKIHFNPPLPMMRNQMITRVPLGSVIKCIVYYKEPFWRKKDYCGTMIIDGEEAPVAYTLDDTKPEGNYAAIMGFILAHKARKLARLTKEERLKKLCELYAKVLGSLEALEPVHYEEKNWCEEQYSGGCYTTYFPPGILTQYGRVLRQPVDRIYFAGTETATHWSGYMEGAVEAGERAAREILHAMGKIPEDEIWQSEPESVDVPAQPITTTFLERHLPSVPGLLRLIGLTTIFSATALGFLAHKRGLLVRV

IC50: 63.1 µM
SMILES: c1ccc([C@@H]2C[C@H]2NCCC2CCNCC2)cc1 (relative stereo) [Example 23, [trans-2-Phenylcyclopropyl][2-(4-piperidinyl)ethyl]amine]
